Source: PubChem BioAssay (National Center for Advancing Translational Sciences (NCATS))
Nrf2 ARE act = Nrf2 pathway activation; Potency, µM (top dose mostly 46.1 µM), actives largely listed as activators; AREc32 ARE-luciferase reporter (MCF7-derived line), luminescence, 24 h; 410,000 tested, 0.31% active; AID 624171; note: nearly all actives have a fitted effect of over 65% in size
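ARE activation measured as luciferase luminescence (Steady-Glo, 30 min RT) in AREc32_Fluc cells after 24 hr compound exposure at 37 deg C, 5% CO2; cells seeded overnight at 1000/well in OPTI-MEM, 5% FBS.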
GALK inhibitor = blocks human galactokinase activity | P51570 | AID 1868 | Potency, µM (series often up to 57.5 µM), hits mostly inhibitors | Purified GALK, Kinase-Glo residual ATP luminescence | 270,000 tested, 0.007% active
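ATP-depletion format; final 35 uM ATP, 100 uM D-galactose, 5 nM enzyme; pH 8.0 HEPES/Mg2+ buffer; 60 min RT; luminescence read 10 min after detection reagent.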
miR-21 reporter = raises the signal of a miR-21 reporter; HeLa miR-21 FLuc reporter, luciferase, 48 h; Potency, µM (series often up to 38.3 µM); 340,000 tested, under 10 active; active = well fitted rising curve with a large enough effect; inconclusive = small, poorly fitted or top-dose-only effect; inactive = no such curve, though single readings can be large or run the other way;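 also: miR-21 action dims this reporter so a rising signal means less miR-21 action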
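Luminescence from a firefly luciferase reporter carrying a miR-21 binding site downstream, stably expressed under a CMV promoter in HeLa cells that make miR-21 endogenously, reports miRNA modulation after 48 h compound exposure up to approximately 40uM final.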
Nrf2 block = blocks Nrf2 signaling; A549 ARE-Fluc reporter, luciferase luminescence, 18-24 h; Potency, µM (top dose mostly 46 µM), hits mostly inhibitors; 360,000 tested, 2.1% active; note: nearly all actives have a fitted effect of over 60% in size
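Reporter: ARE-Fluc in A549. Exposure: 18-24 h, 37 °C, 5% CO2, 5% FBS OPTI-MEM. Readouts: fluorescent cytotoxicity (CellTiter-Fluor), then luminescent Nrf2 signal after BugLite.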
PI4K2A block = blocks human PI4K2A kinase activity | Q9BTU6 | purified PI4K2A, ADP-Glo luminescence, 1 h; stronger effect = lower value | activity change, negative = inhibition, % at 76.9 µM | 420,000 tested, 0.13% active | AID 1346378; in the data active = activity change below about -50%; inconclusive = mostly about -30% to -49%
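In this quantitative HTS, ADP production by PI4K2A was quantified luminescently after 1 h at ambient temperature; 100 microM adenosine served as plate-quality control.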
A549 viability = counter-screen for Nrf2 inhibitors: cytotoxicity in A549 cells; 390,000 tested, 0.16% active; Potency, µM (highest dose often 46 µM), hits mostly inhibitors; A549 ARE-Fluc cells, CellTiter-Fluor viability, 18-24 h
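A549 ARE-Fluc cells in 5% FBS OPTI-MEM, 5000 cells/well, rested 2 h then exposed to compounds in concentration-response for 18-24 h at 37 °C. Viability by CellTiter-Fluor fluorescence (Ex 405/Em 525) after 30 min; luciferase luminescence (BugLite, 15 min, RT) read afterwards.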
A number is an active result; i = inactive; ? = inconclusive; nt = no result; [ ] = dose if it differs, or a comment. Hits are enriched below; roughly 2.2% of the tested compounds scored in any of these assays. Unless noted, calls come from the whole dose curve; as a rule, active = well fitted curve in the direction sought with a large enough effect; inconclusive = small, poorly fitted or top-dose-only effect, or another doubt; inactive = no such curve, though single readings can be large; an effect the other way counts as inactive or inconclusive.

SMILES	Nrf2 ARE act	GALK inhibitor	miR-21 reporter	Nrf2 block	PI4K2A block	A549 viability
CCOc1ccc(CCNC(=O)CCc2c(C)nc3cc(-c4ccccc4OC)nn3c2C)cc1	i	nt	?	14.6µM	i	i
COc1ccc(C2Nc3ccccc3C(=O)N2Cc2ccccc2)cc1COc1cccc(C(F)(F)F)c1 (stereo not drawn)	nt	nt	nt	i	nt	i
O=C(O)c1ccc(COc2ccccc2/C=C2\NC(=O)N(Cc3ccccc3)C2=O)cc1	i	i	i	i	i	i
O=C(O)c1ccc(COc2ccc3ccccc3c2/C=C2/NC(=O)N(Cc3ccc(F)cc3)C2=O)cc1	i	i	i	20.6µM	i	i
C=Cc1ccc(CSc2nnc(C)n3c2cc2occc23)cc1	i	nt	i	18.4µM	i	i
O=C1CSc2ccc(C(=O)N3CCCC(C(=O)N4CCCN(Cc5ccccc5)CC4)C3)cc2N1 (stereo not drawn)	nt	nt	nt	nt	i	nt
CCOC(=O)c1cc(-c2ccc(Cl)cc2)nc2c1c(C)nn2CCC#N	i	i	i	?	i	i
CCOC(=O)c1cc(-c2ccc3c(c2)OCCO3)nc2c1c(C)nn2CCC#N	i	i	i	20.6µM	i	i
CC(=O)c1c(C)[nH]c(C(=O)OCc2nnc(-c3ccccc3)o2)c1C	i	i	i	20.6µM	i	i
CC(=O)c1c(C)[nH]c(C(=O)OCc2cccc(Cl)c2)c1C	i	i	i	?	i	i
CC(=O)c1c(C)[nH]c(C(=O)OCc2ccc(F)cc2Cl)c1C	i	i	i	13µM	i	i
Cc1cc2occ(CC(=O)N(C)CC(=O)Nc3c(C)cccc3C)c2cc1C	i	nt	nt	i	i	i
Cc1cc2occ(CC(=O)N(C)CC(=O)Nc3cccc(F)c3)c2cc1C	i	i	i	25.9µM	i	?
c1ccc(C(c2ccccc2)N2CCN(c3nc4ccccc4n4cnnc34)CC2)cc1	i	i	i	18.4µM	i	i
O=C(NCCCN1CCN(c2ccc(F)cc2)CC1)NCc1ccccc1	nt	nt	nt	nt	i	nt
O=C(Cc1ccc(-n2c(=O)[nH]c3ccsc3c2=O)cc1)N1CCN(c2ccc(Cl)cc2)CC1	i	i	i	23.1µM	i	i
O=C(CCCn1c(=O)[nH]c2ccsc2c1=O)N1CCN(c2ccc(Cl)cc2)CC1	i	nt	?	i[9.27 µM]	i	i
O=[N+]([O-])/C(C(Cl)=C(Cl)Cl)=C(\Sc1ccccc1)N1CCCCC1	11.2µM	i	i	?	i	i
O=C1c2cccnc2-c2ncccc21	i	i	i	i	i	i
COC1=C(Br)C(=O)c2ncccc2C1=O	i	nt	nt	?	-55.1	?
O=C1C(=O)c2cccnc2-c2ncccc21	i	nt	nt	nt	-73.8	nt
COc1ccccc1N1C(=O)c2cccnc2C1=O	i	i	i	i	i	i
Cc1ccc(S(=O)(=O)N(CCc2ccccc2)CC(=O)N2CCOCC2)cc1	nt	nt	nt	nt	i	nt
COc1cc(OC)cc(-c2nnc3n2N=C(c2ccc(OC)cc2OC)CS3)c1	nt	nt	nt	?	nt	i
CC1CC(C)CN(c2ccc(-n3cnnn3)cc2[N+](=O)[O-])C1 (stereo not drawn)	i	i	i	i	i	i
SMILES	Nrf2 ARE act	GALK inhibitor	miR-21 reporter	Nrf2 block	PI4K2A block	A549 viability
O=[N+]([O-])c1cc(-n2cnnn2)ccc1N1CCC(Cc2ccccc2)CC1	i	i	i	10.3µM	i	?
O=[N+]([O-])c1cccc(OCCCN2CCC(C(O)(c3ccccc3)c3ccccc3)CC2)c1	nt	nt	nt	nt	i	nt
CC1CCCN(S(=O)(=O)c2ccc(S(=O)(=O)NC(C)c3cccs3)cc2)C1 (stereo not drawn)	i	i	i	23.1µM	i	?
CCOc1ccc(CCNC(=O)CN2C(=O)COc3ccc(S(=O)(=O)N4CCCCCC4)cc32)cc1	i	nt	i	i	i	i
CCOc1ccc(CCNC(=O)CN2C(=O)COc3ccc(S(=O)(=O)N(CC)CC)cc32)cc1	i	nt	i	23.1µM	i	i
CCn1c(=O)cc(SCC(=O)Nc2cccc(SC)c2)c2ccccc21	i	i	i	13µM	i	i
CCn1c(=O)cc(SCC(=O)Nc2cc(OC)c(OC)c(OC)c2)c2ccccc21	i	i	i	?	i	i
COc1ccc(-c2cc(C(F)(F)F)nc(SCC(=O)Nc3ccc(C(C)=O)cc3)n2)cc1	i	nt	i	23.1µM	i	i
O=C(Nc1c(-c2ccc(C(F)(F)F)cc2)nc2ncccn12)C1CC1	nt	nt	nt	nt	i	nt
CCOC(=O)CN(Cc1ccccc1)C(C(=O)NC1CCCCC1)c1ccccc1 (stereo not drawn)	i	nt	?	4.61µM	i	11.6µM
Cc1ccc(C(C(=O)NC2CCCCC2)N(C)Cc2ccccc2)cc1 (stereo not drawn)	i	nt	i	i[9.27 µM]	i	i
CCOc1ccc(S(=O)(=O)Nc2ccc(F)cc2)c(C)c1C	i	i	i	18.4µM	i	i
Cc1ccc(CN2CCCCC(NC(=O)c3ccccc3)C2=O)cc1 (stereo not drawn)	nt	nt	nt	nt	i	nt
C/C(C=NNC(=O)CSc1nc2ccccc2n1Cc1ccccc1Cl)=C\c1ccccc1	nt	nt	nt	nt	i	nt
O=C(c1ccc2c(=O)n(Cc3ccco3)c(=S)[nH]c2c1)N1CCN(Cc2ccc3c(c2)OCO3)CC1	nt	nt	nt	16.4µM	nt	?
CC1CCCN(C(=O)c2ccc3c(=O)n(Cc4ccc5c(c4)OCO5)c(=S)[nH]c3c2)C1 (stereo not drawn)	i	i	i	25.9µM	i	i
CS(=O)(=O)OC12CCCN(C1)/C(=C/c1ccc(Cl)cc1)C2 (stereo not drawn)	nt	nt	nt	nt	i	nt
Cc1ccc(-n2[nH]c(C)c(/C=N/Nc3ccc([N+](=O)[O-])cc3[N+](=O)[O-])c2=O)cc1C	i	i	i	?	i	16.4µM
CCOc1ccc2[nH]cc(C(=O)NCCc3ccccc3)c(=O)c2c1	i	i	i	?	i	i
CCOc1ccc2[nH]cc(C(=O)NCc3ccccc3)c(=O)c2c1	i	i	i	13µM	i	i
COc1ccc(Cn2c(NC(=O)c3ccccc3)nc(Cc3ccccc3)c2-c2ccccc2)cc1	nt	nt	nt	nt	i	nt
CCCCC/C(C=O)=C\c1ccccc1	nt	nt	nt	nt	i	nt
CS(=O)(=O)c1ncc(Cl)c(C(=O)N(Cc2ccc(Cl)cc2)Cc2ccco2)n1	i	nt	?	23.1µM	i	?
Cc1sc2c(c1C)CN(C(C)(C)C)CN2C(=O)c1ccccc1	11.2µM	i	i	?	i	i
COCCN1Cc2c(sc(C)c2C)N(C(=O)c2ccccc2)C1	?	i	i	?	i	i
NCC1OC(O[C@H]2[C@H](O)[C@@H](OC3C(O)C(N)CC(N)C3OC3OC(CO)C(O)C(O)C3N)O[C@@H]2CO)C(N)C(O)C1O (stereo partly drawn)	nt	nt	nt	nt	i	nt
C=C(c1ccccc1Cl)[n+]1ccccc1	i	i	i	7.31µM	i	?
O=C(NNC(=O)c1ccccc1Cl)c1ccccc1Cl	i	nt	i	i	i	i
